From patent US20170022260A9 (Sanofi, priority 2013, published 2017)
Converted amounts (≈) assume the structure as drawn.

Sequences of proteins named here, by UniProt entry; tags and fusion partners are left off. Residues count along the entry.
UniProt P43220, 24-463: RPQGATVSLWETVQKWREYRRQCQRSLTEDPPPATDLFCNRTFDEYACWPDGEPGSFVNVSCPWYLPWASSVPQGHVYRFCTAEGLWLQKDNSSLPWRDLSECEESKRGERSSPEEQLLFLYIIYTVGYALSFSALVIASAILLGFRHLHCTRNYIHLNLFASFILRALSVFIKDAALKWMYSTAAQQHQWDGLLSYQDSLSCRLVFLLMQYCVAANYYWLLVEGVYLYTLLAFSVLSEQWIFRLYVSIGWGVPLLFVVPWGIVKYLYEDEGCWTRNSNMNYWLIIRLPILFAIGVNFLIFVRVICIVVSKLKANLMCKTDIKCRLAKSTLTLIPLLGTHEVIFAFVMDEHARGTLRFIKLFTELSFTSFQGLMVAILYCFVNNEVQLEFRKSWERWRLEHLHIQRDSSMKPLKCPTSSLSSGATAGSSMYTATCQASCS

Columns and labels:
[1] = physchem; type: physicochemical
From the text: As HPLC/UPLC method, method D or E has been used.

[2] = biological target: T1, human GLP-1 receptor (hGLP-1 R) (Homo sapiens, UniProt P43220); test: cAMP response of HEK-293 cells expressing human GLP-1 receptor (HTRF); type: cell-based; conditions: cAMP formation
T1 construct: expressed in transfected cells

Row | Structure (SMILES) | solubility at 2 h ([1]; pH 4.5, solubility pH 4.5) [µg/mL] | solubility at 2 h ([1]; pH 7.4, solubility pH 7.4) [µg/mL] | EC50 [2] [pM]
1 | CC[C@H](C)[C@H](NC(=O)[C@H](CC(C)C)NC(=O)[C@H](Cc1c[nH]c2ccccc12)NC(=O)[C@H](CCC(=O)O)NC(=O)[C@@H](NC(=O)[C@H](Cc1ccccc1)NC(=O)[C@H](CC(=O)O)NC(=O)[C@H](CCCCN)NC(=O)[C@H](C)NC(=O)[C@H](CCCNC(=N)N)NC(=O)[C@H](CCC(N)=O)NC(=O)[C@H](CCC(=O)O)NC(=O)[C@H](CC(=O)O)NC(=O)[C@H](CC(C)C)NC(=O)[C@H](CCC(N)=O)NC(=O)[C@H](CCCCN)NC(=O)[C@H](CO)NC(=O)[C@H](CC(C)C)NC(=O)[C@H](CC(=O)O)NC(=O)[C@H](CO)NC(=O)[C@@H](NC(=O)[C@H](Cc1ccccc1)NC(=O)[C@@H](NC(=O)CNC(=O)[C@H](Cc1c[nH]cn1)NC(=O)C(C)(C)NC(=O)[C@@H](N)Cc1c[nH]cn1)[C@@H](C)O)[C@@H](C)O)[C@@H](C)CC)C(=O)N[C@@H](C)C(=O)NCC(=O)NCC(=O)N1CCC[C@H]1C(=O)N[C@@H](CO)C(=O)N[C@@H](CO)C(=O)NCC(=O)N[C@@H](C)C(=O)N1CCC[C@H]1C(=O)N1CCC[C@H]1C(=O)N1CCC[C@H]1C(=O)N[C@@H](CO)C(N)=O [compound 10] | 950 (≈ 228 µM) | 710 (≈ 171 µM) | 
2 | CC[C@H](C)[C@H](NC(=O)[C@H](CC(C)C)NC(=O)[C@H](Cc1c[nH]c2ccccc12)NC(=O)[C@H](CCC(=O)O)NC(=O)[C@@H](NC(=O)[C@H](Cc1ccccc1)NC(=O)[C@H](CC(=O)O)NC(=O)[C@](C)(CCCCN)NC(=O)[C@H](C)NC(=O)[C@H](CCCNC(=N)N)NC(=O)[C@H](CCC(N)=O)NC(=O)[C@H](CCC(=O)O)NC(=O)[C@H](CC(=O)O)NC(=O)[C@H](CC(C)C)NC(=O)[C@H](CCC(N)=O)NC(=O)[C@H](CCCCN)NC(=O)[C@H](CO)NC(=O)[C@H](CC(C)C)NC(=O)[C@H](CC(=O)O)NC(=O)[C@H](CO)NC(=O)[C@@H](NC(=O)[C@H](Cc1ccccc1)NC(=O)[C@@H](NC(=O)CNC(=O)[C@H](CCC(N)=O)NC(=O)C(C)(C)NC(=O)[C@@H](N)Cc1c[nH]cn1)[C@@H](C)O)[C@@H](C)O)[C@@H](C)CC)C(=O)N[C@@H](C)C(=O)NCC(=O)NCC(=O)N1CCC[C@H]1C(=O)N[C@@H](CO)C(=O)N[C@@H](CO)C(=O)NCC(=O)N[C@@H](C)C(=O)N1CCC[C@H]1C(=O)N1CCC[C@H]1C(=O)N1CCC[C@H]1C(=O)N[C@@H](CO)C(N)=O [compound 14] |  |  | 1
3 | CC[C@H](C)[C@H](NC(=O)[C@H](CC(C)C)NC(=O)[C@H](Cc1c[nH]c2ccccc12)NC(=O)[C@H](CCC(=O)O)NC(=O)[C@@H](NC(=O)[C@H](Cc1ccccc1)NC(=O)[C@H](CC(=O)O)NC(=O)[C@H](CCCCN)NC(=O)[C@H](C)NC(=O)[C@H](CCCNC(=N)N)NC(=O)[C@H](CCC(N)=O)NC(=O)[C@H](CCC(=O)O)NC(=O)[C@H](CC(=O)O)NC(=O)[C@H](CC(C)C)NC(=O)[C@H](CCC(N)=O)NC(=O)[C@H](CCCCN)NC(=O)[C@H](CO)NC(=O)[C@H](CC(C)C)NC(=O)[C@H](CC(=O)O)NC(=O)[C@H](CO)NC(=O)[C@@H](NC(=O)[C@H](Cc1ccccc1)NC(=O)[C@@H](NC(=O)CNC(=O)[C@H](CCC(N)=O)NC(=O)C(C)(C)NC(=O)[C@@H](N)Cc1c[nH]cn1)[C@@H](C)O)[C@@H](C)O)[C@@H](C)CC)C(=O)N[C@@H](CO)C(=O)NCC(=O)NCC(=O)N1CCC[C@H]1C(=O)N[C@@H](CO)C(=O)N[C@@H](CO)C(=O)NCC(=O)N[C@@H](C)C(=O)N1CCC[C@H]1C(=O)N1CCC[C@H]1C(=O)N1CCC[C@H]1C(=O)N[C@@H](CO)C(N)=O [compound 12] | 992 (≈ 238 µM) | 972 (≈ 233 µM) | 
4 | CC[C@H](C)[C@H](NC(=O)[C@H](CC(C)C)NC(=O)[C@H](Cc1c[nH]c2ccccc12)NC(=O)[C@H](CCC(=O)O)NC(=O)[C@@H](NC(=O)[C@H](Cc1ccccc1)NC(=O)[C@H](CC(=O)O)NC(=O)[C@H](CCC(N)=O)NC(=O)[C@H](C)NC(=O)[C@H](CCCNC(=N)N)NC(=O)[C@H](CCC(N)=O)NC(=O)[C@H](CCC(=O)O)NC(=O)[C@H](CC(=O)O)NC(=O)[C@H](CC(C)C)NC(=O)[C@H](CCC(N)=O)NC(=O)[C@H](CCCCN)NC(=O)[C@H](CO)NC(=O)[C@H](CC(C)C)NC(=O)[C@H](CC(=O)O)NC(=O)[C@H](CO)NC(=O)[C@@H](NC(=O)[C@H](Cc1ccccc1)NC(=O)[C@@H](NC(=O)CNC(=O)[C@H](CCC(N)=O)NC(=O)C(C)(C)NC(=O)[C@@H](N)Cc1c[nH]cn1)[C@@H](C)O)[C@@H](C)O)[C@@H](C)CC)C(=O)N[C@@H](C)C(=O)NCC(=O)NCC(=O)N1CCC[C@H]1C(=O)N[C@@H](CO)C(=O)N[C@@H](CO)C(=O)NCC(=O)N[C@@H](C)C(=O)N1CCC[C@H]1C(=O)N1CCC[C@H]1C(=O)N1CCC[C@H]1C(=O)N[C@@H](CO)C(N)=O [compound 11] | 923 (≈ 222 µM) | 969 (≈ 233 µM) | 
